Results as given in PubChem BioAssay.
The entries are a selection whose mix differs from that of the whole data set. Calls of active or inactive are those of the source.

The chains behind the UniProt entries cited, without tags or fusion partners. Where a name states a change or a piece, a line headed by the entry shows the natural chain unless it says otherwise.
UniProt Q5JTV8: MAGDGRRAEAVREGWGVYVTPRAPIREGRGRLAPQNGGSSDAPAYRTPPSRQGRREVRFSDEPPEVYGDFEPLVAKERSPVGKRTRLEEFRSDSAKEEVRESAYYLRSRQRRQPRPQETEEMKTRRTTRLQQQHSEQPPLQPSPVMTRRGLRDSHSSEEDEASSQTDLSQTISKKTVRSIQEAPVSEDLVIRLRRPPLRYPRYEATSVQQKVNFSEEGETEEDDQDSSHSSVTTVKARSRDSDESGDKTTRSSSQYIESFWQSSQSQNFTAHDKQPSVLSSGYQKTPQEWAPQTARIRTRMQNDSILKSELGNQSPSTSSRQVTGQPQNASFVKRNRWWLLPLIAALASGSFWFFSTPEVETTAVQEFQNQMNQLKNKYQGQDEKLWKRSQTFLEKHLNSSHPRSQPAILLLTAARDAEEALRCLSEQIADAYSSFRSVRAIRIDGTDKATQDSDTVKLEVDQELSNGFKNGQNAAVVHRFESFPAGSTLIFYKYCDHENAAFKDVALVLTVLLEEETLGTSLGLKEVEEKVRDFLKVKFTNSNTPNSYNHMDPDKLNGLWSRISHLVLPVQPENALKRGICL
UniProt P02769, whole entry, looked up: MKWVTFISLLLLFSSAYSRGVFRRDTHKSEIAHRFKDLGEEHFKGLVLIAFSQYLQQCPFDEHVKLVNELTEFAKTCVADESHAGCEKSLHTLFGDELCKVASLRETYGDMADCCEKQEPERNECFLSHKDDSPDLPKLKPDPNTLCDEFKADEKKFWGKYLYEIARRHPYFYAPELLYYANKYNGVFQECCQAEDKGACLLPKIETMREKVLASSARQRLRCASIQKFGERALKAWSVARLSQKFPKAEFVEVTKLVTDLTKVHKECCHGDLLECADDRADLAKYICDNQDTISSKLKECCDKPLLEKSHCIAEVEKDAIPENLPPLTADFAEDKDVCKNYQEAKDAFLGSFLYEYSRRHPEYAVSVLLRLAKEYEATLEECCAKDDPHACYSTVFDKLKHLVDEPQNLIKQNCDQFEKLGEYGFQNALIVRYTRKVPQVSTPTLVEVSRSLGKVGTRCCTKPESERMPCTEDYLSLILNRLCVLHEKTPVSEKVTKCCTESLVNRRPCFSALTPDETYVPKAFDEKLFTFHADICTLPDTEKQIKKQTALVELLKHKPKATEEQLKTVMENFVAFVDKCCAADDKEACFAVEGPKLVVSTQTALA

Legend:
[1] = probe aWnt5a binding to arrayed compounds – biochemical, biotinylated probe, 635/667 nm fluorescence, primary screen (AID 1113); conditions: small-molecule microarray, higher = more signal;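 also: score merges 667 nm fluorescence intensity with signal-to-noise per printed feature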
[2] = probe aShh binding to arrayed compounds – biochemical, biotinylated probe, 635/667 nm fluorescence, primary screen (AID 1114); conditions: small-molecule microarray, higher = more signal;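 also: probe is biotin-labelled aShh protein from a stem cell growth factor screen; measures binding of labelled protein to compounds printed on the slide; score merges feature fluorescence at 667 nm with signal-to-noise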
[3] = probe aNog binding to arrayed compounds – biochemical, biotinylated probe, 635/667 nm fluorescence, primary screen (AID 1115); conditions: small-molecule microarray, higher = more signal;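 also: probe is biotinylated aNog protein used at 0.15 µg/mL for 1 h at 4 C; z-score combines 667 nm fluorescence of each spot with its signal to noise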
[4] = biological target: Torsin-1A-interacting protein 1 (Homo sapiens) (UniProt Q5JTV8); assay: compound microarray binding of lysate hLAP1 – cell lysate, small-molecule microarray, COS7 lysate, 635/667 nm fluorescence, primary screen (AID 1116); conditions: 635 nm fluorescence, higher = more signal
Albumin (Bos taurus) = Albumin (Bos taurus) (UniProt P02769); assay: compounds binding labelled BSA control protein – biochemical, small-molecule microarray, Alexa647 label, 635/667 nm fluorescence, artefact control for SMM control protein annotation, profiling panel (AID 1118); conditions: BSA-A647 binding, fluorescence 635 nm, higher = more signal;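 also: score merges 667 nm emission intensity and signal-to-noise per printed compound spot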
[5] = probe aXIP binding to arrayed compounds – biochemical, NeuroSMM set, 635/667 nm fluorescence, primary screen (AID 1119); conditions: small-molecule microarray, higher = more signal, called active from +8 up or from −8 down;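 also: probe is the protein aXip251-270 applied at 1 µg/mL to compound-printed slides; binding of probe to printed compounds measured as 667 nm fluorescence plus signal to noise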
[6] = probe aNOTCH3 binding on compound microarray – biochemical, small-molecule microarray, 635/667 nm fluorescence, primary screen (AID 1120); conditions: higher = more signal;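 also: probe is a biotin-tagged antibody raised against NOTCH3 rather than NOTCH3 protein; score merges spot fluorescence near 667 nm with spot signal to noise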
[7] = probe aNOTCH2 binding on compound microarray – biochemical, small-molecule microarray, 635/667 nm fluorescence, primary screen (AID 1121); conditions: higher = more signal;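 also: score merges feature fluorescence read at 667 nm with its signal to noise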
[8] = biological target: Carbonic anhydrase 2 (Homo sapiens) (UniProt P00918); assay: compounds binding carbonic anhydrase 2 – biochemical, small-molecule microarray, Alexa647-labelled CAII, profiling panel (AID 1122); conditions: CAII-A647 binding fluorescence, higher = more signal
[9] = COS7 lysate on small-molecule microarray, probe aHis, 635 nm (AID 1123); conditions: COS7 cell lysate, fluorescence, higher = more signal;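 also: z-score combines 667nm fluorescence intensity with signal-to-noise per printed compound spot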

Row | Compound | composite z-score [1] | composite z-score [2] | composite z-score [3] | composite z-score [4] | composite z-score (Albumin (Bos taurus)) | composite Z-score [5] | composite z-score [6] | composite z-score [7] | composite z-score [8] | composite z-score [9]
1 | O=P(/N=C1/CC(c2ccc(CO)cc2)=CC(C2CC2)N1Cc1cc2c(cc1Br)OCO2)(Oc1ccccc1)Oc1ccccc1 (stereo not given) | 0.0077 | 0.385 | -0.0381 | 1.82 | 0.604 | inactive: 2.15 | -0.0003 | -0.142 | 0.381 | 2.53
2 | O=P(/N=C1/CC(c2ccc(CO)cc2)=CC(C2CC2)N1Cc1sc2ccccc2c1Cl)(Oc1ccccc1)Oc1ccccc1 (stereo not given) | -0.0239 | 0.123 | -0.103 | 0.428 | 0.144 | inactive: 0.392 | -0.004 | -0.084 | 0.798 | 1.73
3 | CN1/C(=N\P(=O)(Oc2ccccc2)Oc2ccccc2)CC(c2ccc(CO)cc2)=CC1c1cccs1 (stereo not given) | 0.0101 | -0.297 | 0.82 | 2.11 | 0.717 | inactive: 0.528 | 0.0744 | -0.118 | 0.923 | 1.86
4 | COP(=O)(/N=C1/CC(CCCO)=CC(C2CC2)N1C)OC (stereo not given) | 0.121 | -0.214 | -0.226 | 0.325 | 0.43 | inactive: -0.21 | 0.0945 | -0.164 | 0.16 | 0.484
5 | COP(=O)(/N=C1/CC(CCCO)=CC(c2ccc(CN3CCCC3)cc2)N1C)OC (stereo not given) | 0.149 | -0.138 | 1.43 | 0.455 | 0.0723 | inactive: 0.0831 | 0.032 | 0.13 | 0.714 | 0.686
6 | O=P(/N=C1/CC(CCCO)=CC(c2cccs2)N1Cc1cccc(OC(F)(F)F)c1)(Oc1ccccc1)Oc1ccccc1 (stereo not given) | -0.0718 | 0.0469 | 1.49 | 1.34 | 0.973 | inactive: 2.87 | -0.0378 | -0.0787 | 0.48 | 1.23
7 | COP(=O)(/N=C1/CC(CCCO)=CC(c2ccc(CN3CCCC3)cc2)N1Cc1sc2ccccc2c1Cl)OC (stereo not given) | 0.187 | 0.976 | 1.43 | 2.15 | 0.86 | inactive: 0.797 | 0.764 | 0.243 | 0.608 | 0.361
8 | COP(=O)(/N=C1/CC(CCCO)=CC(c2cccs2)N1C)OC (stereo not given) | 0.312 | 0.104 | -0.0121 | 1.48 | 0.442 | inactive: 0.309 | 0.366 | 0.329 | 0.47 | 0.93
9 | O=P(/N=C1/CC(c2ccc(CO)cc2)=CC(c2cccs2)N1Cc1cccc(OC(F)(F)F)c1)(Oc1ccccc1)Oc1ccccc1 (stereo not given) | -0.0735 | -0.138 | 0.595 | 1.14 | 0.957 | inactive: 0.181 | 0.0623 | 0.0268 | 0.781 | 2.76
10 | COP(=O)(/N=C1/CC(CCCO)=CC(C)N1Cc1cccc(OC(F)(F)F)c1)OC (stereo not given) | -0.0192 | 0.358 | 1.27 | 2.14 | 0.688 | inactive: 1.05 | 0.0026 | 0.0768 | 0.785 | 1.27
11 | COP(=O)(/N=C1/CC(c2ccc(CO)cc2)=CC(C2CC2)N1C)OC (stereo not given) | -0.0607 | 0.0611 | -0.207 | 0.254 | 0.479 | inactive: 0.324 | 0.485 | -0.039 | 0.818 | 0.435
12 | O=P(/N=C1/CC(CCCO)=CC(c2ccc(CN3CCCC3)cc2)N1Cc1cc2c(cc1Br)OCO2)(Oc1ccccc1)Oc1ccccc1 (stereo not given) | -0.0887 | -0.366 | 1.04 | 0.982 | 0.231 | inactive: 0.0707 | -0.0984 | 0.0022 | 0.909 | 1.32
13 | O=P(/N=C1/CC(CCCO)=CC(C2CC2)N1Cc1cc2c(cc1Br)OCO2)(Oc1ccccc1)Oc1ccccc1 (stereo not given) | 0.0324 | -0.154 | 0.869 | 1.57 | 1.1 | inactive: 0.38 | 0.0425 | -0.02 | 0.87 | 2.09
14 | COP(=O)(/N=C1/CC(CCCO)=CC(C2CC2)N1Cc1sc2ccccc2c1Cl)OC (stereo not given) | 0.48 | 1.24 | 1.83 | 2.6 | 0.133 | inactive: 0.295 | 0.762 | 0.354 | 0.732 | 1.16
15 | COP(=O)(/N=C1/CC(c2ccc(CO)cc2)=CC(C2CC2)N1Cc1cc2c(cc1Br)OCO2)OC (stereo not given) | 0.0516 | 0.564 | 1.25 | 1.92 | 0.124 | inactive: 1.11 | 0.26 | 0.114 | 0.789 | 0.163
16 | O=P(/N=C1/CC(CCCO)=CC(c2cccs2)N1Cc1cc2c(cc1Br)OCO2)(Oc1ccccc1)Oc1ccccc1 (stereo not given) | 0.0169 | 0.0684 | 0.672 | 1.25 | 1.02 | inactive: 1.21 | 0.0979 | 0.0028 | 0.462 | 2.69
17 | COP(=O)(/N=C1/CC(CCCO)=CC(C2CC2)N1Cc1cc2c(cc1Br)OCO2)OC (stereo not given) | -0.0346 | 0.337 | 0.638 | 1.24 | 0.283 | inactive: 1.49 | 0.203 | 0.0474 | 0.566 | 1.61
18 | COP(=O)(/N=C1/CC(CCCO)=CC(c2ccc(CN3CCCC3)cc2)N1Cc1cccc(OC(F)(F)F)c1)OC (stereo not given) | 0.0438 | 0.665 | 1.36 | 1.42 | 0.217 | inactive: -0.391 | -0.0707 | 0.0092 | 0.745 | 0.791
19 | CN1/C(=N\P(=O)(Oc2ccccc2)Oc2ccccc2)CC(CCCO)=CC1C1CC1 (stereo not given) | 0.0709 | 0.232 | 0.755 | 2.33 | 0.937 | inactive: 0.952 | 0.281 | -0.107 | 0.927 | 1.8
20 | CN1/C(=N\P(=O)(Oc2ccccc2)Oc2ccccc2)CC(CCCO)=CC1c1cccs1 (stereo not given) | -0.0346 | 0.289 | 0.644 | 1.64 | 0.993 | inactive: -0.305 | 0.0665 | -0.0811 | 0.846 | 1.54
21 | CC1C=C(CCCO)C/C(=N/P(=O)(Oc2ccccc2)Oc2ccccc2)N1Cc1cccc(OC(F)(F)F)c1 (stereo not given) | -0.0203 | 0.0639 | 0.422 | 1 | 0.803 | inactive: 0.586 | 0.0257 | -0.0859 | 0.503 | 1.97
22 | COP(=O)(/N=C1/CC(c2ccc(CO)cc2)=CC(c2cccs2)N1C)OC (stereo not given) | 0.15 | 0.464 | 1.14 | 0.522 | 0.413 | inactive: 0.142 | 0.333 | 0.128 | 0.732 | -0.0512
23 | COP(=O)(/N=C1/CC(CCCO)=CC(c2ccc(CN3CCCC3)cc2)N1Cc1cc2c(cc1Br)OCO2)OC (stereo not given) | 0.0927 | 0.171 | -0.193 | -0.182 | -0.541 | inactive: 0.0792 | 0.601 | 0.306 | 0.901 | 1.03
24 | COP(=O)(/N=C1/CC(c2ccc(CO)cc2)=CC(C2CC2)N1Cc1sc2ccccc2c1Cl)OC (stereo not given) | 0.436 | 0.508 | 1.63 | 1.72 | 0.781 | inactive: 0.121 | 0.802 | 0.303 | 0.792 | 1.29
25 | CN1/C(=N\P(=O)(Oc2ccccc2)Oc2ccccc2)CC(c2ccc(CO)cc2)=CC1C1CC1 (stereo not given) | -0.101 | -0.515 | 0.728 | 0.197 | 1.02 | inactive: -0.0905 | 0.129 | -0.0535 | 0.882 | 2.74
26 | O=P(/N=C1/CC(CCCO)=CC(C2CC2)N1Cc1sc2ccccc2c1Cl)(Oc1ccccc1)Oc1ccccc1 (stereo not given) | 0.0167 | -0.0596 | 0.776 | 2.59 | 0.927 | inactive: 0.221 | -0.294 | -0.0064 | 0.788 | 1.98
27 | COP(=O)(/N=C1/CC(CCCO)=CC(C2CC2)N1Cc1cccc(OC(F)(F)F)c1)OC (stereo not given) | -0.101 | 0.261 | 0.669 | 1.98 | 0.708 | inactive: 0.251 | 0.186 | 0.0175 | 0.541 | 0.74
28 | CN1/C(=N\P(=O)(Oc2ccccc2)Oc2ccccc2)CC(CCCO)=CC1c1ccc(CN2CCCC2)cc1 (stereo not given) | -0.0371 | 0.0278 | 0.201 | 0.748 | 0.916 | inactive: 0.0063 | 0.132 | 0.0521 | 0.859 | 0.695
29 | O=P(/N=C1/CC(CCCO)=CC(c2ccc(CN3CCCC3)cc2)N1Cc1sc2ccccc2c1Cl)(Oc1ccccc1)Oc1ccccc1 (stereo not given) | -0.0192 | 0.0893 | 0.621 | 0.61 | 1.06 | inactive: 0.291 | -0.0567 | 0.0228 | 0.821 | 1.6
30 | O=P(/N=C1/CC(CCCO)=CC(C2CC2)N1Cc1cccc(OC(F)(F)F)c1)(Oc1ccccc1)Oc1ccccc1 (stereo not given) | -0.0478 | -0.214 | 0.189 | 1.3 | 0.295 | inactive: -0.199 | -0.0967 | -0.124 | 0.781 | 1.59
